From paper PMC9569420 (Communications Biology, 2022)

Chains of the proteins cited; added tags and fusions are not shown. Residues count along the entry.
UniProt Q9NZJ5, 30-1116: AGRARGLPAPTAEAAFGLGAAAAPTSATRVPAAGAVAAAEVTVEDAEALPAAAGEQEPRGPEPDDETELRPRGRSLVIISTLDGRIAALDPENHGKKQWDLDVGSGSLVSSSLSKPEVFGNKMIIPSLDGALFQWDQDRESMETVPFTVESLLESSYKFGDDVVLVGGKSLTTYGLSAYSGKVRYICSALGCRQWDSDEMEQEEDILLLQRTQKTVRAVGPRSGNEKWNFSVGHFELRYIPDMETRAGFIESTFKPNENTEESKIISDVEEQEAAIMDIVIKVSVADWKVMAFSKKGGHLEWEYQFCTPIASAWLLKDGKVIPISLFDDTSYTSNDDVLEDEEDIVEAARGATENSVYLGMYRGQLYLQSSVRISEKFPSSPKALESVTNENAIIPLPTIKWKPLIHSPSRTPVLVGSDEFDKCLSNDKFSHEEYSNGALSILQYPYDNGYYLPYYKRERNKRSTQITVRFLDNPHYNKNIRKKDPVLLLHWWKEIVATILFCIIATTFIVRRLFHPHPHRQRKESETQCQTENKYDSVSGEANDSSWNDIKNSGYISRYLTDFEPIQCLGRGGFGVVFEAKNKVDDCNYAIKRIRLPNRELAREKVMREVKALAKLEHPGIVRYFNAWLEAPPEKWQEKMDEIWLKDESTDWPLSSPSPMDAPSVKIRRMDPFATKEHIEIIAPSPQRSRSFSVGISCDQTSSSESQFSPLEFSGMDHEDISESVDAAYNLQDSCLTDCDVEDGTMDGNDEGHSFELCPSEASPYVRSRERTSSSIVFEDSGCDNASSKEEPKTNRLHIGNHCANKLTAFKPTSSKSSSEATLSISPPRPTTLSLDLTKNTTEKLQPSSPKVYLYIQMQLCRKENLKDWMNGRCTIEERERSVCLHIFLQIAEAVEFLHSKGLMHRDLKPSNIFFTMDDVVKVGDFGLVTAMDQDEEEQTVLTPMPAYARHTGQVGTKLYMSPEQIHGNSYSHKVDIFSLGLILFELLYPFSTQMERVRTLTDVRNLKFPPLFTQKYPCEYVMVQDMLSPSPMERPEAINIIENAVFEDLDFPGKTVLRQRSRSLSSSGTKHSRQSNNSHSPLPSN

Target: T1, EIF2AK3 (Homo sapiens, UniProt Q9NZJ5)
T1 construct: purchased Reaction Biology Corporation
Assay: HotSpot kinase assay
Assay type: biochemical
Conditions: read-out: IC50 (M) of Control Compound

Cn1cc(-c2ccc3c(c2)CCN3C(=O)Cc2cccc(C(F)(F)F)c2)c2c(N)ncnc21 [GSK-2606414, reference compound]
IC50: 2.76e-09 M
